Laboratory results: PubChem BioAssay (NCI)
Only a part is listed here, and it is no random draw. Some salts or complexes appear as unconnected parts, following the source record. More than one record can exist for a structure, and the calls need not agree. Activity calls are given as the source filed them. Rule as the data show it: active = growth inhibition above about 70%; inactive = the rest.

Assay: NCI Yeast Anticancer Drug Screen. Data for the mlh1 strain (AID 171);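 also: 0% = growth of vehicle-treated control cultures of the same strain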
Conditions: S. cerevisiae mlh1 strain growth inhibition, active compounds read high
Method: Growth inhibition of yeast strains with defined genetic alterations is measured as a screen for potential anti-cancer activity. Selected strains with alterations in DNA damage repair or cell cycle control were exposed to compounds and growth inhibition was measured relative to vehicle treated controls. The strain used in this assay is mlh1

Row | Structure (SMILES) | growth inhibition (at 1.2 µM) | growth inhibition (at 3.7 µM) | growth inhibition (at 11.0 µM) | growth inhibition (at 33.0 µM) | growth inhibition (at 100.0 µM)
1 | [Au+].[Au+].c1ccc([PH+](c2ccccc2)c2ccccc2)cc1.c1ccc([PH+](c2ccccc2)c2ccccc2)cc1.n1n[n-]c(-c2nnn[n-]2)n1 | inactive: 12% | inactive: 33% | active: 96% | active: 99% | active: 99%
2 | Nc1ccccc1.O=[N+]([O-])c1cc([N+](=O)[O-])cc([N+](=O)[O-])c1 | inactive: 2% | inactive: 9% | inactive: 47% | active: 99% | active: 99%
3 | COc1ccccc1N.O=[N+]([O-])c1cc([N+](=O)[O-])cc([N+](=O)[O-])c1 | inactive: -1% | inactive: 12% | inactive: 52% | active: 99% | active: 99%
4 | [Au+].[N-]=[N+]=N.c1ccc([PH+](c2ccccc2)c2ccccc2)cc1 | inactive: 9% | active: 86% | active: 99% | active: 94% | active: 87%
5 | Cc1cc2ccccc2cc1C.O=[N+]([O-])c1cc([N+](=O)[O-])cc([N+](=O)[O-])c1 | inactive: 1% | inactive: 1% | inactive: 7% | inactive: 15% | inactive: 65%
6 | Cc1c2ccccc2cc2ccccc12.O=[N+]([O-])c1cc([N+](=O)[O-])c(O)c([N+](=O)[O-])c1 | inactive: -2% | inactive: -1% | inactive: 5% | inactive: 32% | active: 97%
7 | O=[N+]([O-])C(F)(COCC(O)CO)[N+](=O)[O-] (stereo not given) | inactive: -8% | inactive: -21% | inactive: -10% | inactive: 45% | active: 91%
8 | [Au].[C-]#N.[C-]#N | inactive: -16% | inactive: -7% | inactive: -7% | inactive: 3% | inactive: 11%
